## AlphaSeq binding of Ab-14 heavy chain variants to a spike HR2 peptide

Values reported by Engelhart et al. 2022, doi:10.1038/s41597-022-01779-4 (FLAb copy).

Target: peptide PDVDLGDISGINAS, taken from heptad repeat 2 (HR2) of SARS-CoV-2 spike.

The variants keep the light chain, the linker and the frameworks of Ab-14 (scFv order VH, a 15-residue (Gly4Ser)3 linker, VL).
VH: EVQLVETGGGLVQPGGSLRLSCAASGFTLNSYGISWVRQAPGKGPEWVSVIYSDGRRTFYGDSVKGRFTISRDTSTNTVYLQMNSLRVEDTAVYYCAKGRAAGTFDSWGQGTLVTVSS
VL: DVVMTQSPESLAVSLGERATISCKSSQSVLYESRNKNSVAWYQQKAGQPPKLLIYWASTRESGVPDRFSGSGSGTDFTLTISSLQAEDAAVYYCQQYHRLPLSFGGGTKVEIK

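The parent was found by panning a naive human phage display library on the peptide. The library (AAYL49) carries one to three amino acid substitutions per variant, with no insertions or deletions. The assay is AlphaSeq: two haploid yeast populations carry antibody and antigen on their surface. Mating (16 h, 30 °C) was followed by selection of diploids and sequencing of their barcodes. Scores were corrected for input abundance and mapped to Kd with protein pairs of known affinity run in the same pool. There are three technical replicates.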

The parent's heavy chain CDRs are GFTLNSYGIS, VIYSDGRRTFYGDSVK, GRAAGTFDS; each variant's own CDRs replace them letter for letter.
This list gathers variants with a substitution at F59 (VH, numbered from residue 1).
Affinities are written as log10 Kd with Kd in nM; a lower number is a better binder.
Replicates are averaged; those with no signal do not enter the mean.
"nd" marks a missing value. The strain was present, yet no cells mated with the target were sequenced in any replicate, which points to weak or no binding.
Background: pairings of library AAYL49 with three empty control strains gave a value in 15% of cases (median 4.06, 5th percentile 2.83). Values in that range, when seen in few replicates, are hard to tell from nonspecific mating.

* GFTLNSYGWS, VIYSDGRRTSYGDSVD, GRAAGTFDS -> nd (0 of 3 replicates)
* GFTLMSGGIS, VIYSDGRRTTYGDSVK, GRAAGTFDS -> nd (0 of 3 replicates)
* GFTLNSDGIS, VIYSDGRRTCYGDSVK, GQAAGTFDS -> nd (0 of 3 replicates)
* GFTLNSYGIS, VIYSDGRRTKYGDDVK, GRAHGTFDS -> 4.14 (2 of 3 replicates)
* GFGLNSYGIS, LIYSDGRRTRYGDSVK, GRAAGTFDS -> 3.34 (1 of 3 replicates)
* GFTLNSYGIS, VDYSDGRRTLYGDQVK, GRAAGTFDS -> nd (0 of 3 replicates)
* GFTLNSTGIS, VIYSDGRRESYGDSVK, GRAAGTFDS -> 3.82 (2 of 3 replicates)
* GFTLNSYGIS, VIYSDGRRTIYGDSVK, GRNAGTFDL -> 4.06 (2 of 3 replicates)
* GFTLNSYGIS, VIYSDGRRTHYGDSVK, GRAAATFDS -> 3.14 (1 of 3 replicates)
* GFTLKSYGIA, VIYSDGRRTNYGDSVK, GRAAGTFDS -> 4.45 (1 of 3 replicates)
* GFTLNSYGIS, VIYSDGRRTEYGDSVK, GRDAGTFDS -> 1.81 (3 of 3 replicates)
* GFTLNSYGIS, VIYSDGRRTWYGDDVK, GRAAGTFDS -> 0.82 (3 of 3 replicates)
* GFTLNSYGII, VIYSDGRRTWYGDSVK, GRAAGTDDS -> 3.33 (1 of 3 replicates)
* GFTLNSYGIS, VIYSDGRRTNYGDSVK, GRQAGTFDW -> nd (0 of 3 replicates)
* GFTLNSRGIT, VIYSDGRRTAYGDSVK, GRAAGTFDS -> 4.04 (2 of 3 replicates)
* GFTLNSYGIS, VIYSDGRRTRYGDSVK, GRAAGVDDS -> 2.44 (3 of 3 replicates)
* GFTLPSYGIS, VIYSDGRRTAYGDSVK, GRAAGTFDA -> 1.47 (3 of 3 replicates)
* GTTGNSYGIS, VIYSDGRRTDYGDSVK, GRAAGTFDS -> 3.63 (1 of 3 replicates)
* GFTLNSYGIS, VIYSDGRRTEYGDSNK, GMAAGTFDS -> 4.56 (2 of 3 replicates)
* GSTLNSYGIS, VIYSDGRRTCYGDHVK, GRAAGTFDS -> nd (0 of 3 replicates)
* GFTLNSYGIS, VIYSDGRPTIYGDSVK, GRAPGTFDS -> 3.63 (1 of 3 replicates)
* GRTLNSYGIS, VIYSDGRRTMYGDSVK, GRAAGTFDS -> 3.06 (3 of 3 replicates)
* GFTLNSYGIS, VGYSEGRRTWYGDSVK, GRAAGTFDS -> nd (0 of 3 replicates)
* RFDLNSYGIS, VIYSDGRRTCYGDSVK, GRAAGTFDS -> nd (0 of 3 replicates)
* GCTLNSYGIS, VIYSDHRRTWYGDSVK, GRAAGTFDS -> 4.46 (3 of 3 replicates)
* GFTLNSYGIS, VIYSDGRRTVYGDSHK, GRAAGTFDY -> 5.73 (2 of 3 replicates)
* GFTLNSYGIS, VIYSDGRRTTYGDSVK, GRAAGTFDP -> nd (0 of 3 replicates)
* GFTLNSYGIS, VIYSDGRRTLYGDSVK, GRACGTVDS -> nd (0 of 3 replicates)
* GFTLNSYGIS, VIYHDGRRTQYGDSVK, GRATGTFDS -> nd (0 of 3 replicates)
* GFTLNSYGIS, VIHSDGRRTRYGDSVK, IRAAGTFDS -> nd (0 of 3 replicates)
* GFTYNSYGIS, VQYSDGRRTGYGDSVK, GRAAGTFDS -> nd (0 of 3 replicates)
* GFTLNSDGIS, VIYSDGYRTLYGDSVK, GRAAGTFDS -> nd (0 of 3 replicates)
* GFTLNSYGIS, VIYSDGRRTCYGDSVK, GRGAGTIDS -> nd (0 of 3 replicates)
* GFTLNSYGIS, VIYSDGRRTYYGDSVK, GRAKGTFDS -> 0.76 (3 of 3 replicates)
* GFTLNSYGIS, VIYSDGTRTYRGDSVK, GRAAGTFDS -> nd (0 of 3 replicates)
* GFTLNSYGIS, VIYSDGRRTHYGDSVK, GRALGTFDD -> nd (0 of 3 replicates)
* HFTLNSYGIS, VITSDGRRTSYGDSVK, GRAAGTFDS -> 3.37 (3 of 3 replicates)
* GFTLNSYGIS, VIYSDGRRTRYSDSVK, GVAAGTFDS -> 1.60 (3 of 3 replicates)
* GFTLNSYGIS, MIYSDGFRTIYGDSVK, GRAAGTFDS -> 4.69 (2 of 3 replicates)
* IFTLNSYGIS, VIYSDGRRTQYGDSVK, GRAAGTFFS -> 5.08 (1 of 3 replicates)
* GFTLNSDGIS, VIYSDGRRTLYMDSVK, GRAAGTFDS -> 3.27 (1 of 3 replicates)
* PFTLNSYGKS, VIYSDGRRTCYGDSVK, GRAAGTFDS -> 4.10 (3 of 3 replicates)

Parent in this assay: reference entry 0.65, copy in this library 4.11 (one replicate of three).